The values that follow come from US20060286104A1 (THERAMAB, published 2006).

For the experiment, the target named is T1, human recombinant CD16b (R&D Systems) (human, UniProt O75015, in part).
T1 construct: Used as capture antigen in ELISA; also called FcyRIIIb; Fc gamma receptor III
Description: ELISA, human recombinant CD16b as capture antigen; legend: - not detectable. Background: In an ELISA, binding on a coated surface is turned into a signal by an enzyme label.

B1: TGN1412 (antibody, human IgG4, kappa)
heavy: QVQLVQSGAEVKKPGASVKVSCKASGYTFTSYYIHWVRQAPGQGLEWIGCIYPGNVNTNYNEKFKDRATLTVDTSISTAYMELSRLRSDDTAVYFCTRSHYGLDWNFDVWGQGTTVTVSSASTKGPSVFPLAPCSRSTSESTAALGCLVKDYFPEPVTVSWNSGALTSGVHTFPAVLQSSGLYSLSSVVTVPSSSLGTKTYTCNVDHKPSNTKVDKRVESKYGPPCPSCPAPEFLGGPSVFLFPPKPKDTLMISRTPEVTCVVVDVSQEDPEVQFNWYVDGVEVHNAKTKPREEQFNSTYRVVSVLTVLHQDWLNGKEYKCKVSNKGLPSSIEKTISKAKGQPREPQVYTLPPSQEEMTKNQVSLTCLVKGFYPSDIAVEWESNGQPENNYKTTPPVLDSDGSFFLYSRLTVDKSRWQEGNVFSCSVMHEALHNHYTQKSLSLSLG
light: DIQMTQSPSSLSASVGDRVTITCHASQNIYVWLNWYQQKPGKAPKLLIYKASNLHTGVPSRFSGSGSGTDFTLTISSLQPEDFATYYCQQGQTYPYTFGGGTKVEIKRTVAAPSVFIFPPSDEQLKSGTASVVCLLNNFYPREAKVQWKVDNALQSGNSQESVTEQDSKDSTYSLSSTLTLSKADYEKHKVYACEVTHQGLSSPVTKSFNRGEC
notes: Humanized from mouse 5.11A1 by CDR grafting, IgG4; Two C-terminal variants of the heavy chain, differing by one residue, were seen on expression in CHO cells; also called humanized superagonistic anti-CD28 antibody of the IgG4 isotype
Regarding B1, the binding result is reported as “no binding”.
